According to patent publication US6482815B1 (priority 1999, dated 2002):

What was measured:
[1] = tested on: BT20; assay: MTT cytotoxicity assay, BT20 breast tumor cells; settings: for pIC50: read-out: BT20 IC50, 24-36 hours incubation
[2] = tested on: RS4;11; assay: MTT cytotoxicity assay, RS4;11 cells; type: cell-based, human; settings: read-out: RS4;11 IC50, 24-36 hours incubation
[3] = tested on: NALM-6; assay: MTT cytotoxicity assay, NALM-6 cells; type: cell-based, human; settings: read-out: NALM-6 IC50, 24-36 hours incubation
[4] = tested on: ALL1; assay: MTT cytotoxicity assay, ALL1 cells; type: cell-based, human; settings: read-out: ALL1 IC50, 24-36 hours incubation
[5] = tested on: MOLT-3; assay: MTT cytotoxicity assay, MOLT-3 cells; type: cell-based, human; settings: read-out: MOLT-3 IC50, 24-36 hours incubation
[6] = tested on: leukemic cell lines (NALM-6, MOLT-3, ALL1, RS4;11); assay: MTT cytotoxicity assay, all leukemic cell lines

Row | Molecule | pIC50 [1] | pIC50 [2] | pIC50 [3] | pIC50 [4] | pIC50 [5] | cytotoxic against the breast cancer cell line BT20 (in words) [1] | cytotoxic for all of the leukemic cell lines (in words) [6]
1 | O=[As](O)(O)c1ccccc1Nc1ncnc2[nH]cnc12 | < 3.60 | < 3.60 | 4.51 | < 3.60 | < 3.60 |  | 
2 | 2,6-Dimethoxyl4[(4′-aminophenylazo)-phenyl arsenic acid]-1,3,5-triazine | 4.67 | 4.63 | 4.19 | 4.54 | 4.30 | cytotoxic | cytotoxic for all of the leukemic cell lines

pIC50: −log10 of the molar value.
